Measurements as given in ChEMBL document CHEMBL1124010, “Synthesis and pharmacology of trans-4-n-propyl-3,4,4a,10b-tetrahydro-2H,5H-1-benzopyrano[4,3-b ]-1,4-oxazin-7- and -9-ols: the significance of nitrogen pKa values for central dopamine receptor activation” (J Med Chem, 1988).

By UniProt entry, the sequences of proteins in these tests, tags left out.
UniProt P61169, whole entry: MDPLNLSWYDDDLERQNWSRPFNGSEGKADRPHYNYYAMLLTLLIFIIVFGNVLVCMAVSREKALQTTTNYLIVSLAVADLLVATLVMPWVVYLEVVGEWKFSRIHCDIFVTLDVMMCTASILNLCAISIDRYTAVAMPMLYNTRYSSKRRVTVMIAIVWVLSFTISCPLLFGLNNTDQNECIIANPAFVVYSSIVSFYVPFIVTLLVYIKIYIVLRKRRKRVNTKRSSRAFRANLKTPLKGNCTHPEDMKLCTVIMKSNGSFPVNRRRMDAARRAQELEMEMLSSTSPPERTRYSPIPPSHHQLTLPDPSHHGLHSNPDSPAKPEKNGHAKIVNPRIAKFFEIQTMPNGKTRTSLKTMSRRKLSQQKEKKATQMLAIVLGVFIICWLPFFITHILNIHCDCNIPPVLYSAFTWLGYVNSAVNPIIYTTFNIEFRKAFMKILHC

Target: D(2) dopamine receptor (Rattus norvegicus, UniProt P61169)
Assay: Potency to displace the specific in vitro binding of [3H]DP-5,6-ADTN to rat striatal membrane
Parameters: species or system Striatum

SMILES: CCCN(CCC)C1CCc2c(O)cccc2C1 (stereo unspecified) [5-OH-DPAT]
- IC50: 4 nM
